Target: Tyrosine-protein kinase JAK2 (Homo sapiens, UniProt O60674)

The chains behind the UniProt entries cited, without tags or fusion partners. Where a name states a change or a piece, a line headed by the entry shows the natural chain unless it says otherwise.
UniProt O60674: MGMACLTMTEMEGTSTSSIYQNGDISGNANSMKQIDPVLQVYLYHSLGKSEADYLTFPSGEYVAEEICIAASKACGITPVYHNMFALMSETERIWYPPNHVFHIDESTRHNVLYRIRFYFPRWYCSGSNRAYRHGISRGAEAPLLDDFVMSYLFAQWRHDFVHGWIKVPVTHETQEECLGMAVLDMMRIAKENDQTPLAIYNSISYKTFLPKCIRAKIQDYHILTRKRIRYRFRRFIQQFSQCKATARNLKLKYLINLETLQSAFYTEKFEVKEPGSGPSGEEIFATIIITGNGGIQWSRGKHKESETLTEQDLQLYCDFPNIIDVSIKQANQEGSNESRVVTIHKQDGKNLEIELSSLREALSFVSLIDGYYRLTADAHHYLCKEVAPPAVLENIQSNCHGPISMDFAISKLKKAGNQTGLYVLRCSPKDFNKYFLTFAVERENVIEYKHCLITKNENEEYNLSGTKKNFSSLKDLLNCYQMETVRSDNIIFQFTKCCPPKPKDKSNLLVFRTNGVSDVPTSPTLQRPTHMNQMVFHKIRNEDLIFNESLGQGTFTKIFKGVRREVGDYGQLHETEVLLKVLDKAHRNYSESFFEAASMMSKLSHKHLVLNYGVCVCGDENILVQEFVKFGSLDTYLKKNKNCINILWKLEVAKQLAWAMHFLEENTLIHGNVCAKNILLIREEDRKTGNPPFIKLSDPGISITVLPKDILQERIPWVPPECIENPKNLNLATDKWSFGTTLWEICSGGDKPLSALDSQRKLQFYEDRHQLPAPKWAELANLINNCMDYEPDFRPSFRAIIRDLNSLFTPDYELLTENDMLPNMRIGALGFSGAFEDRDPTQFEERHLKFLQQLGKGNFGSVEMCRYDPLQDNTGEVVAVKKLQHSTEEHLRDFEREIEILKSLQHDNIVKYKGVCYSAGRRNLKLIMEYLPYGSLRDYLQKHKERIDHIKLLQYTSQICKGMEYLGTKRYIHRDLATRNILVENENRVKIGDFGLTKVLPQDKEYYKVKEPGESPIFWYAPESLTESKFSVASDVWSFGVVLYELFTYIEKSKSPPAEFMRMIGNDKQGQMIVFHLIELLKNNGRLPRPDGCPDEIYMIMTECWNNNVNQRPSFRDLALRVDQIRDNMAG

- Ki: 110 nM
Compound: CN1CCN(C(=O)Cn2cc(Nc3nc4c(N5C[C@H]6C[C@@H]5CN6C(=O)CCC(F)(F)F)cccn4n3)cn2)CC1
